Assay results as given in ChEMBL document CHEMBL4354825, “Design and Synthesis of Basic Selective Estrogen Receptor Degraders for Endocrine Therapy Resistant Breast Cancer” (J Med Chem, 2019).
The source made the active and inactive calls. The rule behind the calls is not given here.

Species: Homo sapiens

## O=C(c1ccc(OCCN2CCCCC2)cc1)c1c(-c2ccc(O)cc2)sc2cc(O)ccc12 [RALOXIFENE]
  pIC50: inactive

## Cc1ccccc1C(=O)c1sc2cc(O)ccc2c1Oc1ccc(OCCN2CCCCC2)cc1
  pIC50: inactive
